From patent publication US7119100B2 (priority 2001, dated 2006)

How the values were obtained:
mice [1] = test: acetic acid writhing test
mice [2] = test: mice 55° C. hot plate test (sc/po)
Wistar rats [3] = test: rat 55° C. hot water bath test
[4] = background art; cited from earlier work
Wistar rats [5] = test: self-administration testing in rat; details: I1 0.05, 0.08, 0.1 mg·kg^−1, continuous 35–40 days session
[6] = test system: opiate receptors of rat brain; test: 3H-naloxone binding, Na+ index determination; details: for IC50: 5 nmol·L^−1 3H-naloxone, rat brain membrane
mice [7] = test: tail-flick test, s.c. and p.o. administration
rhesus monkey = test: substitution test in rhesus monkey self-administering morphine; details: I1 0.025, buprenorphine 0.05 mg·kg^−1/inject, morphine 0.25 mg/kg/inject
Swiss mice = test: conditioned place preference testing in mice; details: morphine 10, buprenorphine 0.3, I1 3 and 10 mg·kg^−1
rats = test: rat formaldehyde test

buprenorphine
acetic acid writhing test ED50 (mice [1]): 0.0073 mg/kg
acetic acid writhing test Max. efficacy (mice [1]): 92.5%
ED50 P.O (mice [1]; Acetic Writhing, p.o.): 0.37 mg/kg
ED50 S.C (mice [1]; Acetic Writhing, s.c.): 0.02 mg/kg
acetic acid writhing test Max. efficacy (mice [1]; listed as Bup): 90%
hot plate test ED50 (mice [2]; 55° C.): 1.1 mg/kg
hot plate test Max. efficacy (mice [2]; 55° C.): 40.3%
hot plate test Max. efficacy (mice [2]; 55° C., listed as Bup): 40%
ED50 P.O (mice [2]; Hot plate, p.o.): 12.52 mg/kg
ED50 S.C (mice [2]; Hot plate, s.c.): 1.01 mg/kg
hot water bath test ED50 (Wistar rats [3]): 8.75 mg/kg
hot water bath test Max. efficacy (Wistar rats [3]): 64.7%
bioavailability [4]: low bioavailability
induction of self-administration (Wistar rats [5]): couldn't induce self-administration
Na^+ index ([6]; ratio of IC50 in presence of NaCl to IC50 in absence): 0.67
IC50 ([6]; read-out: IC50 Free of Na^+, no NaCl): 0.45 nM
IC50 ([6]; read-out: IC50 Presence of Na^+, 100 nmol·L^−1 NaCl): 0.3 nM
effect p.o. where no ED50 is given (footnote) (mice [7]; p.o.): *<30%
ED50 S.C (mice [7]; s.c.): 8.75 mg/kg
self-administration in the place of morphine (rhesus monkey): could continue self-administration
induction of Conditioned Place Preference (Swiss mice): induced significant Conditioned Place Preference
loss weight (Wister rats; Tid × 7d: morphine 30, buprenorphine 5, I1 3 mg·kg^−1, naloxone): 4.2 ± 2.5 g
loss weight (Wister rats; Tid × 14d: morphine 30, buprenorphine 5, I1 3 mg·kg^−1, naloxone): 4.2 ± 1.3 g
formaldehyde test ED50 (rats): 0.34 mg/kg
formaldehyde test Max. efficacy (rats): 97.7%

Where two headings read alike, the source gives them in different places. This is a selection: effects in other tests are not listed, and their absence says nothing.
